Test results: patent US4212797A, “Synthetic pentapeptide having opiate agonist activity” (Beckman Instruments, Inc., priority 1976, dated 1980)

Test system: opiate receptor (stereospecific naloxone binding)
Test: Inhibition of stereospecific naloxone binding (Pert and Snyder technique)
Conditions: sodium 100 mM
Experimental: B., and Snyder, S., Proceedings of the National Academy of Sciences, Vol. 70, pp. 2243-2247 (1973). The potency is measured as ID50, defined as the concentration required to inhibit 50% of stereospecific naloxone binding. The concentration of sodium was 100 mM. The effectiveness is inversely related to the ID50 value.

## CN1CC[C@]23c4c5ccc(O)c4O[C@H]2[C@@H](O)C=C[C@H]3[C@H]1C5 [Morphine]
  ID50, concentration required to inhibit 50% of stereospecific naloxone binding: 0.2
